According to publication PMC12144893, “Synthesis and Characterization of Photoswitchable Covalent Ligands for the β2‐Adrenoceptor” (Angewandte Chemie (International Ed. in English), 2025):
Where two headings read alike, the source gives them in different places. One block for each compound: values may come before it.

Target: β2AR mutant K97^2.68C (Homo sapiens, UniProt P07550, K97C)
Test: BRET biosensor β-arrestin 2 recruitment (enhanced bystander CAAX) after covalent binding, washing, propranolol block and photoswitching
Type: cell-based
Parameters: expressed in transfected cells; host or cells: HEK-293T
Settings: for Emax: relative to norepinephrine
Description: To assess covalent binding to the receptor and subsequent switching of the bound isomer within the binding site, we developed a bioluminescence resonance energy transfer (BRET)‐based biosensor system expressing an RLuc‐tagged β‐arrestin 2 and GFP‐tagged enhanced bystander protein CAAX in HEK293T cells. The assay allowed us to determine receptor‐stimulated recruitment of β‐arrestin to β2AR and the bystander protein CAAX, both located in the cell membrane.^[ [30] ^] To facilitate covalent binding, 1 µM of the Z‐isomers of 1–9 were pre‐incubated with cells for 90 min. After washing to remove all reversibly‐bound ligands and blocking with propranolol, activation properties were determined following a 15‐min incubation. To identify specific agonist effects of the Z‐ and E‐isomers, cells were treated in two different ways after the blocking step. Specifically, half of the cells were kept in the dark to preserve the Z‐isomer, while the second half was irradiated with light at 528 nm to induce switching from the Z‐ to the E‐isomer. […]
resonance energy transfer (HTRF) was determined using the CLARIOstar® plate reader (BMG, Ortenberg, Germany) (Filter set: donor: 620-10 nm; acceptor: 665 -10 nm). Data was analyzed by calculating the ratio of acceptor emission to donor emission. FRET ratio was normalized to the effect […]
the equation for non-linear regression (dose-response curves (four parameters)). Mean values are the result of three to five independent experiments each done in duplicates.
Bioluminescence Resonance Energy Transfer (BRET) assay for recruitment of β −arrestin For BRET assays microplates were coated with poly-D-Lysin (Sigma- Aldrich, Taufkirchen, Germany; MW: 70,000-150,000, 0.1 mg/mL aqueous solution) to improve cell adhesion. HEK-293T cells were transiently transfected applying the PEI reagent as described above. Determination of receptor mediated β -arrestin recruitment was performed by addition of 1 µM of test compound to the cells followed by incubatio n fo r 90 min. Preincubation was terminated by removing the incubation solution followed by a washing step with HBSS buffer. Buffer containing 10 µM pro prano lol was added to block all free binding sites. One half of the wells were kept in the dark, the second half was irradiated at 5 28 nm fo r 1 20 s to enable the switching of the Z -isomer to the E -isomer. Incubation was continued for 10 min and 3 µM of coelenterazine 400a was added for further 5 min. All incubation steps were […]
buffer to derive reference values for normalization. BRET was monitored on a Clariostar plate reader (BMG, Ortenberg, Germany) with the appropriate filter sets (donor 410/80 nm , accepto r 515/ 30 nm ) and was calculated as the ratio of acceptor emission to donor emission. […] BR ET rat io w as […]
values are the result of 3-12 independent experiments each done in quadruplicates. Significance of Emax after switching the test compound from the Z - to the E -i so me r and from E to Z was analyzed by paired t-test in Prism 10.2. The threshold for significance was set as 99% confidence interval an d […]
2.1. Biological Characterization
2.1.1. IP-One Assay on Functional Activity of the Photoswitches 1-9 at the
Functional activity of the photoswitches 1-9 were determined in the E- and Z-isomer applying an IP accumulation assay.[1] HEK 293T cells were transiently co-transfected with the plasmids of the human β 2 receptor and the hybrid G protein Gαqs. […]
compounds in the in the range from 70 -108 % (Figure 4, Table S1). The BI-167107 derivatives 3 -6, 8, […]
Figure S38. Evaluation of recepto r activation for norepine phr ine a nd ep ine phr ine at t he β 2 wt and the mutan t β 2 K972.68C.
An IP accumulation assay in HEK293T cells transi ent ly transf ected with β 2 wt or β 2 K972.68C and the hybri d G-prote in Gαqs was conducted to get dose- respo nse curves as mea n from 10-14 indivi dual e xp erime nts with β 2 wt and 5-6 si ngle […]

[1] = 1 µM Z-isomer pre-incubated 90 min, washed, propranolol, kept in dark or irradiated at 528 nm, range, read-out: Emax
[2] = covalently bound Z-isomer (1 µM, 90 min, washed, propranolol, kept in dark), read-out: Emax

ΔE (efficacy increase) (E to Z, irradiation at 365 nm, paired analysis, 6 experiments): 20%
Structure (SMILES): Cc1nn(CCCCCSSCCN)c(C)c1/N=N/c1ccc(CCNCC(O)c2ccc(O)c3c2OCC(=O)N3)cc1 (racemic) [Compound E-6]

Emax (covalently bound Z-isomer (1 µM, 90 min, washed, propranolol, kept in dark)): 51%
reduction of receptor activation (covalently bound Z-isomer irradiated at 528 nm (Z to E), paired analysis): 16%
Structure (SMILES): Cc1nn(CCCCCSSCCN)c(C)c1/N=N\c1ccc(CCNCC(O)c2ccc(O)c3c2OCC(=O)N3)cc1 (racemic) [Compound Z-6]

More lines, now with the values behind:

Structure (SMILES): Cc1nn(CCSSCCN(C)C)c(C)c1/N=N/c1ccc(CCNC[C@H](O)c2ccc(O)c(O)c2)cc1 [Compound 1, (R,E)-4-(2-((4-((1-(2-((2-(Dimethylamino)ethyl)disulfaneyl)ethyl)-3,5-dimethyl-1H-pyrazol-4-yl)diazenyl)phenethyl)amino)-1-hydroxyethyl)benzene-1,2-diol]
Emax [1]: 2 to 19%

Structure (SMILES): Cc1nn(CCCSSCCN(C)C)c(C)c1/N=N/c1ccc(CCNC[C@H](O)c2ccc(O)c(O)c2)cc1 [Compound 2]
Emax [1]: 2 to 19%

Structure (SMILES): Cc1nn(CCCCSSCCN)c(C)c1/N=N/c1ccc(CCNCC(O)c2ccc(O)c3c2OCC(=O)N3)cc1 (stereo not drawn) [Compound 5]
Emax [2]: 52%

Structure (SMILES): Cc1nn(CCCCCSSCCN)c(C)c1/N=N/c1ccc(CCNCC(O)c2ccc(O)c3c2OCC(=O)N3)cc1 (stereo not drawn) [Compound 6]
Emax (E-isomer formed from covalently bound Z-isomer by irradiation at 528 nm, read-out: Emax): 38%
Emax [2]: 51%

Structure (SMILES): Cc1nn(CCN2C(=O)C=CC2=O)c(C)c1/N=N/c1ccc(CCNC[C@H](O)c2ccc(O)c(O)c2)cc1 [Compound 7]
Emax [1]: 2 to 19%
